Assay results reported in article PMC10535864, “Novel Aminopyrimidine-2,4-diones, 2-Thiopyrimidine-4-ones, and 6-Arylpteridines as Dual-Target Inhibitors of BRD4/PLK1: Design, Synthesis, Cytotoxicity, and Computational Studies” (Pharmaceuticals, 2023).

Biological target: T1, BRD4 (BD2) (Homo sapiens, UniProt O60885)
T1 construct: BRD4 (BD2) should be thawed on ice; purchased
Assay: BRD4 inhibitory activity assay (AlphaLISA Bromodomain Assay);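 note: in vitro inhibition of recombinant BRD4 BD2 bromodomain binding to a BET bromodomain ligand, read by AlphaLISA proximity signal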
Format: binding
Details: BRD4 Lab Report

%inh (conc 0.01 (unit not given)): 43%
%inh (conc 0.1 (unit not given)): 62%
%inh (conc 1 (unit not given)): 77%
%inh (conc 10 (unit not given)): 91%
%inh (conc 100 (unit not given)): 96%
SMILES: CC[C@@H]1C(=O)N(C)c2cnc(Nc3ccc(C(=O)N[C@H]4CC[C@H](N5CCN(CC6CC6)CC5)CC4)cc3OC)nc2N1C(C)C [Volasertib, reference compound]
